pKi: −log10 of the molar value.
Experiments:
[1] = molecular target: human μ opiate receptor (Homo sapiens, UniProt P35372); assay: μ opiate receptor binding assay with [3H]-naloxone (WGA-SPA beads); conditions: for pKi: read-out: Ki (μ) mean [μm], mean; for % inhibition (μ) [1 μM]: test concentration 1 μM
[2] = system: rats
[3] = system: rats; assay: Analgesia in the tail flick (focal ray) test in rats, intravenous administration
[4] = molecular target: ORL1 receptor (Homo sapiens, UniProt P41146); assay: ORL1 receptor binding assay with 3H-nociceptin/orphanin FQ (WGA-SPA beads); conditions: for pKi: read-out: Ki (ORL1) mean, mean; for % inhibition (ORL1) [1 μM]: test concentration 1 μM

By UniProt entry, the sequences of proteins in these tests, tags left out. Where a name states a change or a piece, a line headed by the entry shows the natural chain unless it says otherwise.
UniProt P35372, whole entry, looked up: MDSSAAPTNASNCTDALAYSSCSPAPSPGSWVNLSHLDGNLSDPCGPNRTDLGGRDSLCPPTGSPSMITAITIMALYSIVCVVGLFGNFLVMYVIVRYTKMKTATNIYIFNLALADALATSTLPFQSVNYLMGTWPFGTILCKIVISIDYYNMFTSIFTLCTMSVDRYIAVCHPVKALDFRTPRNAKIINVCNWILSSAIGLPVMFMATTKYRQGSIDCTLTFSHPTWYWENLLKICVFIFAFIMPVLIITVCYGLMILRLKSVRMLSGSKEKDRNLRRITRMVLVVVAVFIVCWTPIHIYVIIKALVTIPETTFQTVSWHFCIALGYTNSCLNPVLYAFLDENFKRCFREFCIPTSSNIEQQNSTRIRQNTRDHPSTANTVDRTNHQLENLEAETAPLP
UniProt P41146: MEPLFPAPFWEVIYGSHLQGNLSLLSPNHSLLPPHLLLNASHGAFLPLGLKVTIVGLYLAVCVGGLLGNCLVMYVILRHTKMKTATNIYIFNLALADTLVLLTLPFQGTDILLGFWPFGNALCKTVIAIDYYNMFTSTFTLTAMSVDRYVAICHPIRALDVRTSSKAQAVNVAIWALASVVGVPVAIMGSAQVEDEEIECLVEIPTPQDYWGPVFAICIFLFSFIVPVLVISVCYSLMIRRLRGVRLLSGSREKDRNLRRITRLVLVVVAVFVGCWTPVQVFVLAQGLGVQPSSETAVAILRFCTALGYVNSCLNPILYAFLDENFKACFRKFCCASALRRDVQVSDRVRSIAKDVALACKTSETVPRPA

SMILES	pKi [1]	% inhibition (μ) [1 μM] [1] [%]	SNL rat, i.v. ED50 rat [μg/kg] [2] [µg/kg]	Tail flick rat, i.v. ED50 rat [μg/kg] [3] [µg/kg]	pKi [4]	% inhibition (ORL1) [1 μM] [4] [%]	SNL rat, i.v. % MPE (@μg/kg) ([2]; @6.81 μg/kg) [%@6.81]
CCCC(=O)N1CCC2(CCC(c3ccccc3)(N(C)C)CC2)C1 (stereo not drawn)	7.52	93	100	157	8.23	81.5	–
CCCC(=O)N1CCC2(CCC(c3ccc(C)s3)(N(C)C)CC2)C1 (stereo not drawn)	8.12	93.5	–	6.54	7.81	77.5	44
CCCCN1CCC2(CCC(c3cccs3)(N(C)C)CC2)C1 (stereo not drawn)	8.55	98.5	105	414	8.54	89.5	–
CN(C)C1(C2CCCC2)CCC2(CCN(CCC3CC3)C2)CC1 (stereo not drawn)	8.61	98.5	107	162	7.81	88.5	–
CCCC(=O)N1CCC2(CCC(c3cccs3)(N(C)C)CC2)C1 (stereo not drawn)	8.64	98.5	30	26	8.02	82.5	–
CN(C)C1(C2CCCC2)CCC2(CCN(C(=O)CC3CC3)C2)CC1 (stereo not drawn)	8.39	99.5	2.44	5.43	7.53	79	–

Reference: patent publication US10202345B2, “Substituted azaspiro(4.5)decane derivatives” (priority 2014, dated 2019)
